{"source": "patent US6576670B1", "about": "“Use of a 5HT2A and 5HT2A/C receptor antagonist for treating snoring and high resistance syndrome of upper anatomical airways” (Sanofi—Synthelabo, priority 1998, dated 2003)", "origin": "cited, not measured here", "key": {"5HT2 receptor [1]": {"test_system": "5HT2 receptor", "conditions": "in vivo; cited from earlier work"}, "5HT2 receptor [2]": {"test_system": "5HT2 receptor", "conditions": "rats; cited from earlier work"}}, "data": [{"compound": "Clc1ccc2c(c1)C(N1CCNCC1)=Nc1ccccc1O2", "note": "[amoxapine]", "values": [{"measurement": "slow wave sleep time", "setting": "5HT2 receptor [1]", "result": "regulate or increase"}]}, {"compound": "CC[C@@H](CO)NC(=O)[C@@H]1C=C2c3cccc4c3c(cn4C)C[C@H]2N(C)C1", "note": "[methysergide]", "values": [{"measurement": "apnea induced by 5-HT", "setting": "5HT2 receptor [2]", "result": "inhibit"}]}]}
